The source of these data is patent US20180319847A1.

Sequences of proteins named here, by UniProt entry; tags and fusion partners are left off. Residues count along the entry.
UniProt B3EWN9, 36-89: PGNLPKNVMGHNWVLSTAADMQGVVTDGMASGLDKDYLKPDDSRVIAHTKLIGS

The assay concerns the target EphB2-Fc. Nature of the assay: SPR titration (0.05-100 nM) on immobilised EphB2-Fc, Langmuir 1:1 fit of Req.

Take “GST-Azu 36-89 (from UniProt B3EWN9 36-89)”: the Kd (in general, the equilibrium constant for the complex coming apart) came to 61 nM.
As for “GST-Azu 36-128 (from UniProt P00282 56-148)”, the figure is 23 nM.
